From patent publication US20210395310A1 (UNIVERSITY OF TOKYO, published 2021) come the findings set out here.

For assay [1], the target named is MET on EHMES-1 cells (UniProt P08581). The experiment in a line: cell-based or functional assay.
For assay [2], the target named is T1, MET-extracellular domain-Fc fusion protein (product of R&D systems) (UniProt P08581 25-932, limits assumed).
T1 construct: extracellular domain; Bought; held on protein G beads; also called MET-Fc; MET-beads; not shown: Fc part
T1 sequence (looked up): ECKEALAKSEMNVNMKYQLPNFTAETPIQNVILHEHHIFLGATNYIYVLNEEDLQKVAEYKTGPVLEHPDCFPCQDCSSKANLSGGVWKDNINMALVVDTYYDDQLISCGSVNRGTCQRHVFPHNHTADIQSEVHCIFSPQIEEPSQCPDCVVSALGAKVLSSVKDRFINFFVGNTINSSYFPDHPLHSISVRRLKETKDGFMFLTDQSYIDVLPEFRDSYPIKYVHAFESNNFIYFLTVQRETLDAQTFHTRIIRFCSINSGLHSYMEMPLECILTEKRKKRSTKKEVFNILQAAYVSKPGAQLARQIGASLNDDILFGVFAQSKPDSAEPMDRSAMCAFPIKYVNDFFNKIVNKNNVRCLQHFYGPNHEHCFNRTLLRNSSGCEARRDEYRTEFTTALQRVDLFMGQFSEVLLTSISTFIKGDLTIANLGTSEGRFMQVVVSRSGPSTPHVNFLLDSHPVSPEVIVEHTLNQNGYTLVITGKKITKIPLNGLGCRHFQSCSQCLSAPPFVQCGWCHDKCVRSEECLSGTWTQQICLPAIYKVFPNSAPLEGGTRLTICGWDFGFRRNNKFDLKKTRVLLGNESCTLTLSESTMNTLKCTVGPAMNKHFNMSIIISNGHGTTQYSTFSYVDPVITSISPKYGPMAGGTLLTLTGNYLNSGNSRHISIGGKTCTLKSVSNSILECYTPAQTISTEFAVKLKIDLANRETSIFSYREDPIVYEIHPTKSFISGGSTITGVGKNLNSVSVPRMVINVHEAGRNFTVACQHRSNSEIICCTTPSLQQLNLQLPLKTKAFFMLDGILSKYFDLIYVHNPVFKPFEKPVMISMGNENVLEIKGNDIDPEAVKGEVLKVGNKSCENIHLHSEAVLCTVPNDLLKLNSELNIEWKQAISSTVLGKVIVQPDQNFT
In words: flow cytometry of MET-Fc on protein G beads with rising fluorescein HGF, saturation curve fitting. As for the experimental part:
Binding to MET-immobilized beads or control protein G beads was detected by a flow cytometer at varying fluorescein HGF concentrations. […] The arrow in the graph indicates 0.44 nM fluorescein HGF used for peptide assessment. MFI means mean fluorescence intensity.
Labeling of hHGF with fluorescein was performed using a succinimidyl fluorescein labeling kit (product of Dojindo). On 200 μl (50% v/v) of protein G beads (Spherotech) in Tris-buffered physiological saline (pH 7.5) containing 0.1% BSA and […] of Tween-20, 5 μg of MET-extracellular domain-Fc fusion protein (product of R&D systems) was immobilized. […] The fluorescence intensity of the beads was detected using a flow cytometer (product of FACS Canto II, BD Biosciences).
For orientation: A flow cytometer gives signals particle by particle.

B1: human hepatocyte growth factor (HGF), recombinant full-length, active two-chain form (ligand)
chain: QRKRRNTIHEFKKSAKTTLIKIDPALKIKTKKVNTADQCANRCTRNKGLPFTCKAFVFDKARKQCLWFPFNSMSSGVKKEFGHEFDLYENKDYIRNCIIGKGRSYKGTVSITKSGIKCQPWSSMIPHEHSYRGKDLQENYCRNPRGEEGGPWCFTSNPEVRYEVCDIPQCSEVECMTCNGESYRGLMDHTESGKICQRWDHQTPHRHKFLPERYPDKGFDDNYCRNPDGQPRPWCYTLDPHTRWEYCAIKTCADNTMNDTDVPLETTECIQGQGEGYRGTVNTIWNGIPCQRWDSQYPHEHDMTPENFKCKDLRENYCRNPDGSESPWCFTTDPNIRVGYCSQIPNCDMSHGQDCYRGNGKNYMGNLSQTRSGLTCSMWDKNMEDLHRHIFWEPDASKLNENYCRNPDDDAHGPWCYTGNPLIPWDYCPISRCEGDTTPTIVNLDHPVISCAKTKQLRVVNGIPTRTNIGWMVSLRYRNKHICGGSLIKESWVLTARQCFPSRDLKDYEAWLGIHDVHGRGDEKCKQVLNVSQLVYGPEGSDLVLMKLARPAVLDDFVSTIDLPNYGCTIPEKTSCSVYGWGYTGLINYDGLLRVAHLYIMGNEKCSQHHRGKVTLNESEICAGAEKIGSGPCEGDYGGPLVCEQHKMRMVLGVIVPGRGCAIPNRPGIFVRVAYYAKWIHKIILTYKVPQS
With B1, in assay [1], the “MET activation (EC50), cell-based MET activation assay in EHMES-1 cells” value came out at 0.07 nM.

B2: fluorescein-HGF (ligand)
chain: B1 chain
modifications: labelled with a succinimidyl fluorescein labeling kit (sites not given)
notes: also called fluoresceinated HGF
As for B2, the affinity in assay [2], expressed as Kd, was 0.07 nM. In other words, the picomolar range.
